PubChem BioAssay AID651819 (National Center for Advancing Translational Sciences (NCATS), 2012)
This is a selection; strong and weak results do not stand in their true shares. Calls of active or inactive are those of the source. Cut-off read from the data, not from the text of the source: active = activity change below about -30%; inactive = the rest.

The compounds below were run on cytosolic chaperonin (CCT/TRiC complex) (assay: High-Throughput Screening for Modulators of Cytosolic Chaperonin Activity). Conditions: purified chaperonin ATPase assay, HTRF ADP detection, 30 min; stronger effect = lower value.
Description: The eukaryotic chaperonin named TRiC (for TCP-1 ring complex), also called CCT (for chaperonin containing TCP1), is an essential and conserved chaperone required for the folding and activation of 10-15% of the proteins encoded by the human genome. […] Despite its central role in cellular folding, little is known about TRiC mechanism and mode of substrate binding. Currently, no specific TRiC inhibitors are available. Given the early promise of other chaperone-directed inhibitors as cancer therapeutics (e.g. HSP90 inhibitors), inhibitors of TRiC activity may also selectively target transformed cells and have potential use as therapeutics for cancer.
To this end, a miniaturized assay was developed to screen against the Molecular Libraries Small Molecule Repository (MLSMR).
NIH Chemical Genomics Center [NCGC]
NIH Molecular Libraries Probe Centers Network [MLPCN]
Assay Submitter (PI): Judith Frydman, Stanford University
1.5 uL/well TRiC enzyme suspended in buffer (30 mM TRIS pH7.4, 100 mM KCl, 5 mM MgCl2, 1 mM DTT) was added with BioRAPTR FRD dispenser at 40 nM or 20 nM (based on the enzymatic activity of used batches) final concentration to a white solid bottom medium binding 1536-well plate (Greiner Bio-One, Monroe, NC), and quickly spanned down. 23 nl/well of compound solutions in DMSO were added with a pintool transfer (Kalypsis, San Diego, CA) at a single 76 uM final concentration. Next, 1.5 µl/well ATP was dispensed with BioraptR at 10 uM final concentration after which the plates were incubated at 37 deg C for 30 min. HTRF(R) Transcreener(R) ADP (Cisbio US, Bedford, MA) detection reagents were prepared accordingly to the protocol and dispensed into the plate (1.5 uL/well each), incubated for 30 min at ambient temperature. Then, the plates were read using Envision reader with excitation at 330nm and emission at 615nm (Eu(3)-Cryptate donor signal) and 665nm (d2 acceptor signal). The ratio of […] was calculated for each well.
% is set by controls: 0 for no effect and ±100 for the full control effect.

Row | Structure (SMILES) | activity change
1 | COc1cccc(C(=O)N(c2cc(C)cc(C)c2)C2CCN(C(=O)OC(C)(C)C)CC2)c1 | inactive: -0.514%
2 | COc1cc(OC)cc(C(=O)NCC2(N3CCOCC3)CCCCC2)c1 | inactive: -1.47%
3 | COc1cccc(C(c2nnnn2C2CCCC2)N2CCC(n3c(=O)[nH]c4ccccc43)CC2)c1OC (stereo unspecified) | inactive: 1.21%
4 | O=c1[nH]c2ccccc2n1C1CCN(C(c2ccnc3ccccc23)c2nnnn2C2CCCC2)CC1 (stereo unspecified) | inactive: -0.168%
5 | COc1ccc(C(=O)NCC2(N3CCOCC3)CCCCC2)cc1OC | inactive: 0.711%
6 | O=c1[nH]c2ccccc2n1C1CCN(C(c2cccs2)c2nnnn2C2CCCCC2)CC1 (stereo unspecified) | inactive: -2.13%
7 | O=C(NCC1(N2CCOCC2)CCCCC1)c1cc(Br)ccc1Cl | inactive: 1.18%
8 | COc1cc(C(=O)NCC2(N3CCOCC3)CCCCC2)cc(OC)c1C | inactive: 2.01%
9 | CCCCn1nnnc1C(c1ccccc1)N1CCC(n2c(=O)[nH]c3ccccc32)CC1 (stereo unspecified) | inactive: -2.86%
10 | CCCCn1nnnc1C(c1cccc(OC)c1OC)N1CCC(n2c(=O)[nH]c3ccccc32)CC1 (stereo unspecified) | inactive: -2.52%
11 | O=c1[nH]c2ccccc2n1C1CCN(C(c2cccs2)c2nnnn2C2CCCC2)CC1 (stereo unspecified) | inactive: 0.725%
12 | O=C(O)c1cccc(Nc2c([N+](=O)[O-])cc([N+](=O)[O-])cc2[N+](=O)[O-])c1 | inactive: 2.24%
13 | CCc1cc(C(=O)NCC2(N3CCCCC3)CCCCC2)sc1C | inactive: -3.08%
14 | O=C(OC1CN2CCC1CC2)C1c2ccccc2C=Cc2ccccc21 (stereo unspecified) | inactive: 1.24%
15 | N/C(=N\O)c1c(N)no[n+]1[O-] | inactive: -1.72%
16 | CCOC(=O)N1CCC(Nc2ccc(C)cc2)CC1 | inactive: -6.95%
17 | COc1cccc(C(c2nnnn2C(C)(C)C)N2CCC(n3c(=O)[nH]c4ccccc43)CC2)c1OC (stereo unspecified) | inactive: -0.903%
18 | CCOC(=O)C(CC)C1=NC(C)(C)Cc2ccccc21.O=[N+]([O-])c1cc([N+](=O)[O-])c(O)c([N+](=O)[O-])c1 (stereo unspecified) | inactive: -1.37%
19 | CC(C)(C)OC(=O)N1CCC(N(C(=O)c2ccccc2)c2ccc(Cl)cc2)CC1 | inactive: -2.72%
20 | N#Cc1ccc(C(=O)NCC2(N3CCCCC3)CCCCC2)cc1 | inactive: -15.1%
21 | CC(C)(C)n1nnnc1C(c1cccc2ccccc12)N1CCC(n2c(=O)[nH]c3ccccc32)CC1 (stereo unspecified) | inactive: -2.6%
22 | CCCN1CCC(Nc2cc(OC)cc(OC)c2)CC1 | inactive: 1.15%
23 | O=c1[nH]c2ccccc2n1C1CCN(C(c2ccccc2)c2nnnn2C2CCCC2)CC1 (stereo unspecified) | inactive: 0.764%
24 | Cc1cc(N(CCCl)CCCl)ccc1C=O | inactive: -3.23%
25 | c1ccc(CN2CCC(Nc3ccccc3)CC2)cc1 | inactive: 0.244%
26 | CN(C)C1(CNC(=O)c2cccc(C#N)c2)CCCCC1 | inactive: -3.28%
